Data reported in PubChem BioAssay (Tox21).
Values joined by “and” are separate entries in the source; they are usually repeats but may differ in a detail not shown here. Equal values may be shown once. For some assays here: Shown are results outside the selection of hits, which stands elsewhere. Inconclusive results are not listed. Some compounds were tested as several samples or in several runs, with calls that do not always agree. The entries are a selection whose mix differs from that of the whole data set. Active and inactive are the calls of the source. Unless noted, the call rests on the fitted dose curve; in most records, active means well fitted curve in the direction sought with a large enough effect in the repeat runs; inconclusive means weak or mixed curves; inactive means no such curve, though single readings can be large; an effect the other way counts as inactive or inconclusive.

By UniProt entry, the sequences of proteins in these tests, tags left out. Where a name states a change or a piece, a line headed by the entry shows the natural chain unless it says otherwise.
UniProt P03372, whole entry, looked up: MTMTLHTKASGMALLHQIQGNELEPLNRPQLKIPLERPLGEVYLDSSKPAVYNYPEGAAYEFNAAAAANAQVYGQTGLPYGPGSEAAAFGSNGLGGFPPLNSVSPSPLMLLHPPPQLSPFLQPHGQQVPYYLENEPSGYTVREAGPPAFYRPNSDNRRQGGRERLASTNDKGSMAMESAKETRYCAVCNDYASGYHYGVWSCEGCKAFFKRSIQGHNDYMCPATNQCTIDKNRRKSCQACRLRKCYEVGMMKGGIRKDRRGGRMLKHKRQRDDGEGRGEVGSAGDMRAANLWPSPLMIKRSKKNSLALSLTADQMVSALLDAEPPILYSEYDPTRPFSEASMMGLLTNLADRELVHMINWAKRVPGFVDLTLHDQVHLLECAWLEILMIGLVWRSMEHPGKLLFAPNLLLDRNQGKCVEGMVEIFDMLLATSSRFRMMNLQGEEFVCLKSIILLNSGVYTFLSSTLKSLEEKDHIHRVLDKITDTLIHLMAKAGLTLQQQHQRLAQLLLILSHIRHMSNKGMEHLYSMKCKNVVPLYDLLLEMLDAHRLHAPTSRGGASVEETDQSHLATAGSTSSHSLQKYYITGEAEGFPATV
UniProt P10275: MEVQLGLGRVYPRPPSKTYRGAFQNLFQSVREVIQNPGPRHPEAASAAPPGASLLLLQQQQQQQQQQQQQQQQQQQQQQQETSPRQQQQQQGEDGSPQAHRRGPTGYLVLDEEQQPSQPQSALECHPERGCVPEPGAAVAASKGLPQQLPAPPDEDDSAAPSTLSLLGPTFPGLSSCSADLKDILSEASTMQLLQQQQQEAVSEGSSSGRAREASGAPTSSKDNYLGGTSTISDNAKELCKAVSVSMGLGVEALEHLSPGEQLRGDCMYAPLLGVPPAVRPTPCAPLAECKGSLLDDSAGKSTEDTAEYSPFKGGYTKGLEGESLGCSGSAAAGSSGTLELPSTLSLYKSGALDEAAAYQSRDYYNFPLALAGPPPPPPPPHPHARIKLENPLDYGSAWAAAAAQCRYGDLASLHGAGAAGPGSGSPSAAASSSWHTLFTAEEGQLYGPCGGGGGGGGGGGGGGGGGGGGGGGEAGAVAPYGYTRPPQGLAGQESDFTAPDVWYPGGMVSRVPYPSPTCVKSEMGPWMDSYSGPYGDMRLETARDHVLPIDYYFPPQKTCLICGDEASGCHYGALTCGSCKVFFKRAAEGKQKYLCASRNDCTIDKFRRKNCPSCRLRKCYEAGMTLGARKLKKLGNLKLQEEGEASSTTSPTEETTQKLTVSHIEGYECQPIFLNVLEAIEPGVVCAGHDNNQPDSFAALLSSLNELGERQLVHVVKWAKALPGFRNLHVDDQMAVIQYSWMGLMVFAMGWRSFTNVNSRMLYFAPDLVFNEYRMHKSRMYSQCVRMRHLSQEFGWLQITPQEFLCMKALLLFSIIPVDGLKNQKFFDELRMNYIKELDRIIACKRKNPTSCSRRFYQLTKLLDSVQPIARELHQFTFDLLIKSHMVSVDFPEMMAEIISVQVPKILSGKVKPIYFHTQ
UniProt Q92731, whole entry, looked up: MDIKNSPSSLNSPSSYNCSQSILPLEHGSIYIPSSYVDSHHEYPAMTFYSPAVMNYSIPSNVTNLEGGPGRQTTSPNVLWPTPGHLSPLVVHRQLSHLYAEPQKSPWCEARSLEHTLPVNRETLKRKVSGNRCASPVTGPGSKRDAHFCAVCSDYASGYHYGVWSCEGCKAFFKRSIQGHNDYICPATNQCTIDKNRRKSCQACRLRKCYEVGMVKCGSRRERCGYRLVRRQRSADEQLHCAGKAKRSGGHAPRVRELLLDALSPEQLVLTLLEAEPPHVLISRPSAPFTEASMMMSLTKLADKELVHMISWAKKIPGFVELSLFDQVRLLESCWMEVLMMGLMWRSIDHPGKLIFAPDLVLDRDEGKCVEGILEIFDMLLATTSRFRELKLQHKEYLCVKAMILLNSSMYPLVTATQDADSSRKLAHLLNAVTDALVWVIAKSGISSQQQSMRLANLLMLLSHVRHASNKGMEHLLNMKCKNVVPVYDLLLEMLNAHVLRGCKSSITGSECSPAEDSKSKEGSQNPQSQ
UniProt P35869: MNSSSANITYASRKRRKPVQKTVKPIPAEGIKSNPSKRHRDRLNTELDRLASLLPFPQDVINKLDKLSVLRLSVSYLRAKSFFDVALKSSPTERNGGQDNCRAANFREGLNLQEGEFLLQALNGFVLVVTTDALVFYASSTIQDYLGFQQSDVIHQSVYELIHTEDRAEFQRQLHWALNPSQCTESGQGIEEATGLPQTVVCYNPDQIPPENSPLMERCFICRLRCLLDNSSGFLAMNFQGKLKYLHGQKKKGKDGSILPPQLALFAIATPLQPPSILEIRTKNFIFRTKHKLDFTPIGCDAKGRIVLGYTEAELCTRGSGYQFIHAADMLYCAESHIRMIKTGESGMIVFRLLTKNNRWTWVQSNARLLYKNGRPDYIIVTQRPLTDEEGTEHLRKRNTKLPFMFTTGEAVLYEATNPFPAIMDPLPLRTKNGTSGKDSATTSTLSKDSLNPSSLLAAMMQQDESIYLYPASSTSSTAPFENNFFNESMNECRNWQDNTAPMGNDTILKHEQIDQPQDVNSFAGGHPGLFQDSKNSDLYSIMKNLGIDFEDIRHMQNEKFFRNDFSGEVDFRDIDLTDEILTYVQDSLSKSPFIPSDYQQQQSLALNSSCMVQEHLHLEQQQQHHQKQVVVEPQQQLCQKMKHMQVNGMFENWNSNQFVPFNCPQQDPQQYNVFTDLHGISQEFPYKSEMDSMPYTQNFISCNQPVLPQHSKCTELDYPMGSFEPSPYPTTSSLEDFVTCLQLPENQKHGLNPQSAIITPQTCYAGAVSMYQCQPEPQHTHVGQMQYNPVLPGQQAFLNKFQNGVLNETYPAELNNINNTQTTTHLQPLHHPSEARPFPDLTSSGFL
UniProt Q14994: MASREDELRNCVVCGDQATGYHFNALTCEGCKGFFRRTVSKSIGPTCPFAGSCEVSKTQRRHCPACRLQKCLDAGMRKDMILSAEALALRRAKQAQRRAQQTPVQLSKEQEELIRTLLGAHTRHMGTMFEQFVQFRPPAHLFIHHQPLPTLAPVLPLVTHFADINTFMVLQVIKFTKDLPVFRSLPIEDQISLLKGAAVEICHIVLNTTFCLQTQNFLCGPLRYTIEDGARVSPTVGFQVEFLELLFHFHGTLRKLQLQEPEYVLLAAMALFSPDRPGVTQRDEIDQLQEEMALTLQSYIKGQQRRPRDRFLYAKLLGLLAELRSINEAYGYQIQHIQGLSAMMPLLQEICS
UniProt Q96RI1: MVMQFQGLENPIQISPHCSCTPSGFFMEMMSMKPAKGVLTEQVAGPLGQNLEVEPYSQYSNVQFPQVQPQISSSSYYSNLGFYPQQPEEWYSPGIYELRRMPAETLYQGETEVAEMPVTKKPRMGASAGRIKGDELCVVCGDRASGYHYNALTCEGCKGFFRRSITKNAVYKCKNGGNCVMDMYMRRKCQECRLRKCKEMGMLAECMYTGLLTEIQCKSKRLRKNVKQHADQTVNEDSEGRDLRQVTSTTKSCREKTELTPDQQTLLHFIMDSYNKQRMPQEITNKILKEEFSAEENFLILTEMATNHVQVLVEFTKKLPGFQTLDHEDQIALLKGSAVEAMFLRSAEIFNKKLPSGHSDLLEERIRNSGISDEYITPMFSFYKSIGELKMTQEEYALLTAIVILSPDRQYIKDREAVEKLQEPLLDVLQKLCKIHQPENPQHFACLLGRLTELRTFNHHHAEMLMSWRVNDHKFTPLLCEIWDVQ

Columns and labels:
[1] = biological target: Estrogen receptor (Homo sapiens) (UniProt P03372); test: qHTS assay to identify small molecule antagonists of the estrogen receptor alpha (ER-alpha) signaling pathway (AID 743069; active means well fitted curve in the direction sought with a large enough effect in the signal ratio in the repeat runs, not every such curve was filed as active; the % refers to the signal ratio; further: on the % scale 0 is the no-effect control and ±100 the full control effect); settings: HEK293 ER-alpha-UAS-bla, beta-lactamase ratio, antagonist mode; series mostly up to 69.4 µM
[2] = biological target: Estrogen receptor (Homo sapiens) (UniProt P03372); test: qHTS assay to identify small molecule agonists of the estrogen receptor alpha (ER-alpha) signaling pathway (AID 743075; calls by dose curve;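 further: HEK293 GripTite cells with ER-alpha and UAS-driven beta-lactamase reporter; on the % scale 0 is the no-effect control and ±100 the full control effect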); settings: HEK293 ER-alpha-UAS-bla, beta-lactamase FRET ratio, 18 h; series mostly up to 70.1 µM
[3] = biological target: Estrogen receptor (Homo sapiens) (UniProt P03372); test: qHTS assay to identify small molecule antagonists of the estrogen receptor alpha (ER-alpha) signaling pathway using the BG1 cell line in the presence of 0.1 nM 17-beta-estradiol (AID 1259244); settings: VM7Luc4E2 (BG1) ERE-luciferase, antagonist mode, 0.1 nM E2, 22 h; further: on the % scale 0 is the no-effect control and ±100 the full control effect; nearly all actives have a fitted effect of over 50% in size
[4] = biological target: Estrogen receptor (Homo sapiens) (UniProt P03372); test: qHTS assay to identify small molecule agonists of the estrogen receptor alpha (ER-alpha) signaling pathway in the presence of an antagonist (AID 1259383; calls by dose curve; further: nearly all actives have a fitted effect of over 15% in size; further: potency means the concentration at half of the fitted maximal effect); settings: VM7Luc4E2 cells, ERE-luciferase, +ICI-182,780, 22 h; series mostly up to 92.4 µM
[5] = biological target: Androgen receptor (Homo sapiens) (UniProt P10275); test: qHTS assay to identify small molecule agonists of the androgen receptor (AR) signaling pathway using the MDA cell line (AID 743040; further: on the % scale 0 is the no-effect control and ±100 the full control effect; nearly all actives have a fitted effect of over 20% in size); settings: MDA-kb2 AR-luc cells, MMTV luciferase, 16 h, stronger effect = higher value
[6] = biological target: Androgen receptor (Homo sapiens) (UniProt P10275); test: qHTS assay to identify small molecule antagonists of the androgen receptor (AR) signaling pathway using the MDA cell line (AID 743042; further: potency means the concentration at half of the fitted maximal effect; nearly all actives have a fitted effect of over 55% in size); settings: MDA-kb2 AR-luc, MMTV luciferase, R1881 antagonist, 16 h; series mostly up to 70.3 µM
[7] = biological target: Androgen receptor (Homo sapiens) (UniProt P10275); test: qHTS assay to identify small molecule antagonists of the androgen receptor (AR) signaling pathway using the MDA cell line in the presence of 0.5 nM R1881 (AID 1259243); settings: MDA-kb2 MMTV-luciferase, R1881 0.5 nM, 16 h; series mostly up to 42.5 µM; further: potency means the concentration at half of the fitted maximal effect; nearly all actives have a fitted effect of over 50% in size
[8] = biological target: Androgen receptor (Homo sapiens) (UniProt P10275); test: qHTS assay to identify small molecule agonists of the androgen receptor (AR) signaling pathway in the presence of an antagonist (AID 1259381; calls by dose curve; further: on the % scale 0 is the no-effect control and ±100 the full control effect; nearly all actives have a fitted effect of over 15% in size); settings: MDA-kb2 MMTV-luciferase, AR agonist + nilutamide, 16 h; series mostly up to 92.4 µM
[9] = biological target: Estrogen receptor beta (Homo sapiens) (UniProt Q92731); test: qHTS assay to identify small molecule antagonists of the estrogen receptor beta (ER-beta) signaling pathway (AID 1259378; active means well fitted inhibition curve with a large enough effect in the signal ratio in the repeat runs, not every such curve was filed as active; the % refers to the signal ratio; further: potency means the concentration at half of the fitted maximal effect); settings: ER-beta-UAS-bla HEK293T, beta-lactamase FRET ratio, 16 h; series mostly up to 42.5 µM
Summary of the method: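 ER-beta-UAS-bla HEK293T cells in 2% charcoal-stripped FBS medium treated with compound plus 1nM final 17-beta-estradiol for 16 hr at 37C. Beta-lactamase reporter read by FRET substrate fluorescence after 2 hours at room temperature.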

[10] = biological target: Estrogen receptor (Homo sapiens) (UniProt P03372); test: qHTS assay to identify small molecule agonists of the estrogen receptor alpha (ER-alpha) signaling pathway using the BG1 cell line (AID 743079); settings: BG1Luc4E2 cells, ERE-luciferase agonist, 22 h; series mostly up to 70.3 µM; further: nearly all actives have a fitted effect of over 20% in size; further: potency means the concentration at half of the fitted maximal effect
[11] = biological target: Aryl hydrocarbon receptor (Homo sapiens) (UniProt P35869); test: qHTS assay to identify small molecule that activate the aryl hydrocarbon receptor (AhR) signaling pathway (AID 743085); settings: HepG2 AhR-luc (HG2L7.5c1), luciferase, 24 h;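 further: HG2L7.5c1 human HepG2 liver cells with stably integrated DRE-driven firefly reporter; on the % scale 0 is the no-effect control and ±100 the full control effect; nearly all actives have a fitted effect of over 15% in size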
[12] = qHTS assay to identify small molecule antagonists of the retinoic acid receptor (RAR) signaling pathway (AID 1159552; further: on the % scale 0 is the no-effect control and ±100 the full control effect; nearly all actives have a fitted effect of over 50% in size); settings: C3RL4 RARE luciferase reporter, retinol-stimulated, 6 h; series mostly up to 42.5 µM
Summary of the method: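 Retinol signaling pathway inhibitors screened in C3RL4 RARE-luciferase reporter cells seeded overnight at 37 C, then compounds added with 1 uM (final) retinol as pathway substrate. After 6 hr at 37 C, luciferase luminescence read after 30 min at room temperature.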

[13] = biological target: Nuclear receptor subfamily 1 group I member 3 (Homo sapiens) (UniProt Q14994); test: qHTS assay to identify small molecule antagonists of the constitutive androstane receptor (CAR) signaling pathway (AID 1224838); settings: HepG2-CYP2B6-hCAR luciferase, CITCO-stimulated, 24 h;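 further: HepG2 cells stably expressing hCAR with CYP2B6 luciferase reporter stimulated by CITCO; on the % scale 0 is the no-effect control and ±100 the full control effect; nearly all actives have a fitted effect of over 40% in size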
[14] = biological target: Nuclear receptor subfamily 1 group I member 2 (Homo sapiens) (UniProt O75469); test: Human pregnane X receptor (PXR) small molecule agonists, qHTS assay (AID 1346982); settings: PXR-Luc HepG2, CYP3A4 luciferase reporter, 24 h; series mostly up to 42.5 µM; further: nearly all actives have a fitted effect of over 35% in size; further: potency means the concentration at half of the fitted maximal effect
Summary of the method: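 PXR-Luc HepG2 cells (CYP3A4 promoter-driven luciferase) were seeded in medium with 5% charcoal-stripped FBS, left 5 hr at 37 C, then exposed to compounds in DMSO for 24 hr. Luminescence was read after ONE-Glo addition.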

[15] = biological target: Nuclear receptor subfamily 1 group I member 2 (Homo sapiens) (UniProt O75469); test: Human pregnane X receptor (PXR) activation by small molecules, qHTS assay (AID 1346985); settings: DPX-2 HepG2 CYP3A4-luciferase, 24 h; series mostly up to 38.3 µM; further: on the % scale 0 is the no-effect control and ±100 the full control effect; nearly all actives have a fitted effect of over 40% in size
[16] = biological target: Nuclear receptor subfamily 1 group I member 3 (Homo sapiens) (UniProt Q14994); test: qHTS assay to identify small molecule agonists of the constitutive androstane receptor (CAR) signaling pathway (AID 1224839); settings: HepG2 hCAR CYP2B6-luciferase, agonist mode, 24 h;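 further: HepG2 cells stably carrying human CAR and a CYP2B6 luciferase reporter; on the % scale 0 is the no-effect control and ±100 the full control effect; nearly all actives have a fitted effect of over 15% in size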
[17] = biological target: Bile acid receptor (Homo sapiens) (UniProt Q96RI1); test: qHTS assay to identify small molecule antagonists of the farnesoid-X-receptor (FXR) signaling pathway (AID 743217; active means well fitted inhibition curve with a large enough effect in the signal ratio in the repeat runs, not every such curve was filed as active; the % refers to the signal ratio; further: on the % scale 0 is the no-effect control and ±100 the full control effect); settings: HEK293T FXR-UAS-bla, beta-lactamase ratio, CDCA-stimulated, 16 h
Summary of the method: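 FXR-UAS-bla HEK 293T cells pre-incubated 5 h at 37 °C, then exposed to compounds with chenodeoxycholic acid (50 uM final) for 16 h at 37 °C. Beta-lactamase reporter read by LiveBLAzer B/G FRET substrate fluorescence after 2 h at room temperature.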

[18] = biological target: Bile acid receptor (Homo sapiens) (UniProt Q96RI1); test: qHTS assay to identify small molecule agonists of the farnesoid-X-receptor (FXR) signaling pathway (AID 743220; active means well fitted activation curve with a large enough effect in the signal ratio in the repeat runs, not every such curve was filed as active; the % refers to the signal ratio; further: on the % scale 0 is the no-effect control and ±100 the full control effect); settings: HEK293T FXR-UAS-bla, beta-lactamase FRET ratio, 16 h
[19] = biological target: Nuclear receptor subfamily 1 group I member 2 (Homo sapiens) (UniProt O75469); test: CYP3A4 induction through human pregnane X receptor (PXR) by small molecules, qHTS assay (AID 1346984); settings: DPX-2 HepG2 PXR, CYP3A4-luciferin luminescence, 24 h; series mostly up to 46.1 µM; further: on the % scale 0 is the no-effect control and ±100 the full control effect; nearly all actives have a fitted effect of over 40% in size
Summary of the method: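 DPX-2 cells (HepG2 co-transfected with PXR and CYP3A4 promoter-luciferase) treated with compounds 24 h at 37C; luciferin-IPA CYP3A4 substrate 3uM final added for 3 h, then One-Glo; luminescence read. qHTS format.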

C[n+]1ccn(CCO)c1
inactive: Potency [1] | Potency [2] | activity change, negative = inhibition ([3]; at 92.4 µM (top of the series)) 14.1% and 2.64% | Potency [4]

CCCCCCCC[P+](CCCCCCCC)(CCCCCCCC)CCCCCCCC
inactive: activity change ([5]; at 70.3 µM (top of the series)) -1.42% | Potency [8]
active: Potency [6] 1.71 µM | Potency [7] 242 nM

CCCCCCCCCCCC[N+](C)(C)Cc1ccccc1
active: Potency [6] 21.1 µM and 16.9 µM and 21 µM | Potency [7] 9.5 µM and 11.8 µM and 5.31 µM | Potency [9] 47600 nM
inactive: activity change ([5]; at 70.3 µM (top of the series)) -10.7% and 11.4% | activity change ([5]; at 95 µM (top of the series)) -11% | Potency [8]

CCN[C@@H]1C[C@H](N)[C@@H](OC2OC(CN)=CCC2N)[C@H](O)[C@H]1O[C@H]1OC[C@](C)(O)[C@H](NC)[C@H]1O (stereo partly drawn)
inactive: Potency [1] | Potency [2] | Potency [10] | activity change, negative = inhibition ([3]; at 0.349 µM (top of the series)) -0.432% | activation [4] 0.71% [at 0.349 µM]

NS(=O)(=O)c1cc(C(=O)O)c(NCc2ccco2)cc1Cl
inactive: activation ([11]; at 70.3 µM (top of the series)) -0.964% | activation ([11]; at 95 µM (top of the series)) -0.528% | Potency [12]

CO[C@@H]1[C@@H](OC)[C@H](C)[C@@](O)(CC(=O)O)O[C@H]1[C@H](C)[C@H]1O[C@@]2(CC[C@@](C)([C@H]3CC[C@@](C)([C@@H]4O[C@@H]([C@H]5O[C@](C)(O)[C@H](C)C[C@@H]5C)C[C@@H]4OC4C[C@H](OC)[C@@H](OC)[C@H](C)O4)O3)O2)C[C@H](O)[C@H]1C (stereo partly drawn)
inactive: activity change ([5]; at 70.3 µM (top of the series)) -10.1% | Potency [8]
active: Potency [6] 0.596 µM | Potency [7] 841 nM

CN1CCC[C@H]1c1cccnc1
inactive: Potency [1] | Potency [2] | Potency [10] | activity change, negative = inhibition ([3]; at 42.5 µM (top of the series)) 2.29% | activity change, negative = inhibition ([3]; at 92.4 µM (top of the series)) -0.89% and -1.91% | Potency [4]

C[C@]12CCC(=O)C=C1CC[C@@H]1[C@@H]2[C@@H](O)C[C@@]2(C)[C@H]1CC[C@]2(O)C(=O)CO
inactive: activity, negative = inhibition ([13]; at 42.5 µM (top of the series)) 5.33% | activity, negative = inhibition ([13]; at 92.4 µM (top of the series)) -8.91% | Potency [15]
30.9 µM (active) and inactive: Potency [14]

C=C[C@H]1CN2CC[C@H]1C[C@@H]2[C@@H](O)c1ccnc2ccc(OC)cc12
inactive: activation ([16]; at 42.5 µM (top of the series)) 0.902% | activation ([16]; at 92.4 µM (top of the series)) -2.48%

NNCCc1ccccc1
active: Potency [10] 3.2 µM and 27.4 µM
inactive: Potency [1] | Potency [2] | activity change, negative = inhibition ([17]; at 62.6 µM (top of the series)) -11.6% and -5.91% | activation ([18]; at 62.6 µM (top of the series)) 0.83% | activity change, negative = inhibition ([3]; at 42.5 µM (top of the series)) 67.2% | activity change, negative = inhibition ([3]; at 92.4 µM (top of the series)) 51.8%
9.72 µM (active) and inactive: Potency [4]

CC1CCc2cc(F)cc3c(=O)c(C(=O)O)cn1c23 (stereo not drawn)
inactive: activation ([16]; at 42.5 µM (top of the series)) -3.02% | Potency [14]

C=C[C@H]1CN2CC[C@H]1C[C@H]2[C@H](O)c1ccnc2ccc(OC)cc12
inactive: activation ([16]; at 42.5 µM (top of the series)) 1.59% | activation ([16]; at 92.4 µM (top of the series)) 11.5%

Oc1ccc(C(O)CNCCCCCCNCC(O)c2ccc(O)c(O)c2)cc1O (stereo not drawn)
inactive: Potency [1] | Potency [2] | Potency [10] | activity change, negative = inhibition ([3]; at 42.5 µM (top of the series)) -2.72% | Potency [9] | Potency [4]

CN(C)CCOc1ccccc1Cc1ccccc1
inactive: activity change, negative = inhibition ([3]; at 42.5 µM (top of the series)) -1.71% | Potency [4]

CC(NN)c1ccccc1 (stereo not drawn)
inactive: Potency [1] | Potency [2] | activity change, negative = inhibition ([17]; at 29.1 µM (top of the series)) 0.281% | activation ([18]; at 29.1 µM (top of the series)) 1.77% | activity change, negative = inhibition ([3]; at 19 µM (top of the series)) 6.02% | activation [4] 1.58% [at 19 µM]

O=C1NS(=O)(=O)c2ccccc21
inactive: Potency [12] | Potency [14] | Potency [19] | Potency [15]
